Test results: ChEMBL document CHEMBL5500420, “Discovery of BI-9508, a Brain-Penetrant GPR88-Receptor-Agonist Tool Compound for In Vivo Mouse Studies” (J Med Chem, 2024)

How the values were obtained:
Mus musculus [1] = species: Mus musculus; test: Effect on [35S]-GTPgammaS binding activity in GPR88 knockout mouse striatal membrane incubated for 1 hrs in presence of GDP by liquid scintillation counter; assay type: functional, organism-based; conditions: Striatum
Medium spiny neuron [2] = test: Reduction in cortical stimulation mediated evoked EPSC amplitude in mouse dorsal striatum Medium spiny neurons at 5 uM by whole cell patch clamp recording; assay type: functional, cell-based; conditions: time 5-25 min
Medium spiny neuron [3] = test: Effect on paired-pulse ratio in mouse dorsal striatum Medium spiny neurons at 5 uM incubated for 5 to 25 mins by whole cell patch clamp recording; assay type: functional, cell-based; conditions: time 5-25 min
Medium spiny neuron [4] = test: Enhancement of local intrastriatal stimulation evoked peak inhibitory post-synaptic current in mouse dorsal striatum Medium spiny neurons at 5 uM by whole cell patch clamp recording; assay type: functional, cell-based; conditions: time 5-25 min
Mus musculus [5] = test: Reduction in spontaneous locomotor activity in wildtype mouse at 10 to 100 mg/kg, ip measured over 60 mins; assay type: functional, organism-based; conditions: dose 10-100 mg/kg
Mus musculus [6] = test: Reduction in spontaneous locomotor activity in GPR88 knockout mouse at 10 to 100 mg/kg, ip measured over 60 mins; assay type: functional, organism-based; conditions: dose 10-100 mg/kg
Mus musculus [7] = test: Reversal of morphine-induced hyperlocomotion in wildtype mouse assessed as decrease in distance travelled at 10 to 30 mg/kg, ip measured after 15 mins; assay type: functional, organism-based; conditions: dose 10-30 mg/kg
Mus musculus [8] = test: Reversal of morphine-induced hyperlocomotion in GPR88 knockout mouse assessed as decrease in distance travelled at 10 to 30 mg/kg, ip measured after 15 mins; assay type: functional, organism-based; conditions: dose 10-30 mg/kg
Mus musculus [9] = test: Reversal of morphine-induced hyperlocomotion in wildtype mouse assessed as decrease in distance travelled at 30 mg/kg, ip measured after 120 mins; assay type: functional, organism-based

For COc1cc(-c2ccc(OC(C)C)cc2)ccc1N(C[C@@H](N)[C@@H](C)OC)C(=O)[C@@H]1C[C@H]1c1ccncn1, the Activity (Mus musculus [1]) was “inactive”, the Activity (Medium spiny neuron [2]) was “Tde” and the Activity (Medium spiny neuron [3]) was “inactive”. For the same molecule, the Activity (Medium spiny neuron [4]) was “Tde”, the Activity (Mus musculus [5]) was “Active” and the Activity (Mus musculus [6]) was “inactive”. The Activity (Mus musculus [7]) was “Active”, the Activity (Mus musculus [8]) was “inactive” and the Activity (Mus musculus [9]) was “Active”.

Activity calls are given as the source filed them. The rule behind the calls is not given here.
